The values that follow come from article PMC3307390 (Journal of Immunology (Baltimore, Md. : 1950), 2010).

The target of one experiment is DQA1*0501/DQB1*0301 (Homo sapiens, UniProt P01909+P01920). Briefly: biochemical.
The target of another experiment is DQA1*0401/DQB1*0402 (Homo sapiens, UniProt P01909+P01920, A45G/E106S/E183D/E77G/E98D/H199R/I129T/K197E/L107V/L178F/L91T/P87R/P88L/R102E/S185I/S97I/T103D/T217I/V99I/Y41F/Y58G). In words: biochemical.
For another experiment, the target named is DQA1*0501/DQB1*0201 (Homo sapiens, UniProt P01909+P01920, A45G/A70V/D89A/E106A/E77G/E98D/H199R/L107V/N214S/P84L/P87L/T103K/T109R/T172A/T60S/V78E/V99I/Y58L/Y62S/Y69I/Y79F). In words: biochemical.
Experiment [1] deals with HLA-DQ DQA1*0501/DQB1*0301 (human (endogenous in EBV-transformed cell line Herluf)). Briefly: radioligand binding.
In experiment [2] the target is HLA-DQ DQA1*0401/DQB1*0402 (human (endogenous in EBV-transformed cell line OLL)). Briefly: radioligand binding.

Regarding `CC[C@H](C)[C@H](NC(=O)[C@H](C)NC(=O)[C@H](CS)NC(=O)[C@H](C)NC(=O)[C@H](CC(C)C)NC(=O)[C@@H](NC(=O)CNC(=O)[C@H](CC(=O)O)NC(=O)[C@H](CC(=O)O)NC(=O)CNC(=O)[C@@H](N)CCSC)C(C)C)C(=O)N[C@@H](C)C(=O)N[C@H](C(=O)N[C@@H](Cc1c[nH]cn1)C(=O)N[C@@H](C)C(=O)N[C@@H](CCCCN)C(=O)N[C@H](C(=O)N[C@@H](CCCNC(=N)N)C(=O)N[C@@H](CC(=O)O)C(=O)O)[C@@H](C)CC)[C@@H](C)O`, the IC50 against DQA1*0501/DQB1*0301 amounted to 0.014 µM.
Take `CC[C@H](C)[C@H](NC(=O)[C@H](CC(=O)O)NC(=O)[C@@H](N)CCCCN)C(=O)N[C@@H](CC(C)C)C(=O)N[C@@H](CCC(=O)O)C(=O)N[C@@H](CC(=O)O)C(=O)N[C@@H](CCC(=O)O)C(=O)N[C@@H](CCCNC(=N)N)C(=O)N[C@@H](C)C(=O)N[C@@H](C)C(=O)N[C@H](C(=O)N[C@@H](CC(=O)O)C(=O)N[C@H](C(=O)N[C@@H](Cc1ccc(O)cc1)C(=O)N[C@@H](CS)C(=O)O)[C@@H](C)O)C(C)C`: 0.045 µM corresponded to half-maximal inhibition against DQA1*0401/DQB1*0402 (IC50).
In turn, `CC[C@H](C)[C@H](NC(=O)[C@H](CS)NC(=O)[C@@H]1CCCN1C(=O)[C@H](CCC(=O)O)NC(=O)[C@H](CO)NC(=O)CNC(=O)[C@@H](N)Cc1c[nH]cn1)C(=O)N[C@H](C(=O)N[C@@H](Cc1c[nH]cn1)C(=O)N[C@@H](CCCNC(=N)N)C(=O)NCC(=O)N[C@@H](CCCCN)C(=O)N1CCC[C@H]1C(=O)N[C@@H](Cc1ccccc1)C(=O)N[C@@H](CCC(N)=O)C(=O)N[C@@H](CC(C)C)C(=O)N[C@@H](CCC(=O)O)C(=O)N[C@@H](C)C(=O)N[C@H](C(=O)O)C(C)C)[C@@H](C)CC` came in with an IC50 against DQA1*0501/DQB1*0301 of 0.016 µM.
For the molecule `CSCC[C@H](NC(=O)[C@H](CCCNC(=N)N)NC(=O)[C@H](CCSC)NC(=O)[C@H](CCCCN)NC(=O)[C@H](CO)NC(=O)[C@@H](NC(=O)[C@@H]1CCCN1C(=O)[C@@H](N)CCCCN)C(C)C)C(=O)N[C@@H](C)C(=O)N[C@H](C(=O)N1CCC[C@H]1C(=O)N[C@@H](CC(C)C)C(=O)N[C@@H](CC(C)C)C(=O)N[C@@H](CCSC)C(=O)N[C@@H](CCC(N)=O)C(=O)N[C@@H](C)C(=O)N[C@@H](CC(C)C)C(=O)N1CCC[C@H]1C(=O)O)[C@@H](C)O`, the IC50 on DQA1*0501/DQB1*0201 amounted to 0.03 µM.

B1: ROIV reiterative nonnatural ligand …, unlabeled (peptide)
peptide: YAHAAHAAHAAHAAHAA
With B1, the IC50 in experiment [1] was 0.018 µM.

B2: Homo sapiens CD20 249 peptide …, unlabeled (peptide)
peptide: EEDIEIIPIQEEEY
In experiment [2], B2 displayed an IC50 of 0.033 µM.

B3: H. sapiens DRB1*0402 peptide … (peptide)
peptide: KDILEDERAAVDTYC
Take B3: in experiment [2], the IC50 is 0.045 µM.
